Experimental data from article PMC11873635 (Acta Pharmaceutica Sinica. B, 2024).

Target: T1, human SMS2 (Homo sapiens, UniProt Q8NHU3)
T1 sequence (Q8NHU3 1-365): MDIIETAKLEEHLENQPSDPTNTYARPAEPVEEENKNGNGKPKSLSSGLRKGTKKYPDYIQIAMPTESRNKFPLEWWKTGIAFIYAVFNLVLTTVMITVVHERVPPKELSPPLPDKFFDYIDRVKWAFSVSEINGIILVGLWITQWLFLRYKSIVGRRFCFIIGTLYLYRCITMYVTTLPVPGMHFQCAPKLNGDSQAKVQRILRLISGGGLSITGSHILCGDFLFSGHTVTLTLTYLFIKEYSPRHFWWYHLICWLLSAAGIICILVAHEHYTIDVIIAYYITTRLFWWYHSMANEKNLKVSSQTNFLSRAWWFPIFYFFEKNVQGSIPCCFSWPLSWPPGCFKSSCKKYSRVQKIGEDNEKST
Experiment: purified SMS enzyme inhibitory assay in vitro
Type: biochemical

Structure (SMILES): O=C(Nc1cccnc1)c1sccc1OCc1cc(F)ccc1Cl [14d]
- IC50: 70 nM
